These results are taken from patent US20250304596A1, “PYRAZINE DERIVATIVES AND USES THEREOF” (FOGHORN THERAPEUTICS INC., priority 2022, published 2025).

Chains of the proteins cited; added tags and fusions are not shown.
UniProt P51532, whole entry: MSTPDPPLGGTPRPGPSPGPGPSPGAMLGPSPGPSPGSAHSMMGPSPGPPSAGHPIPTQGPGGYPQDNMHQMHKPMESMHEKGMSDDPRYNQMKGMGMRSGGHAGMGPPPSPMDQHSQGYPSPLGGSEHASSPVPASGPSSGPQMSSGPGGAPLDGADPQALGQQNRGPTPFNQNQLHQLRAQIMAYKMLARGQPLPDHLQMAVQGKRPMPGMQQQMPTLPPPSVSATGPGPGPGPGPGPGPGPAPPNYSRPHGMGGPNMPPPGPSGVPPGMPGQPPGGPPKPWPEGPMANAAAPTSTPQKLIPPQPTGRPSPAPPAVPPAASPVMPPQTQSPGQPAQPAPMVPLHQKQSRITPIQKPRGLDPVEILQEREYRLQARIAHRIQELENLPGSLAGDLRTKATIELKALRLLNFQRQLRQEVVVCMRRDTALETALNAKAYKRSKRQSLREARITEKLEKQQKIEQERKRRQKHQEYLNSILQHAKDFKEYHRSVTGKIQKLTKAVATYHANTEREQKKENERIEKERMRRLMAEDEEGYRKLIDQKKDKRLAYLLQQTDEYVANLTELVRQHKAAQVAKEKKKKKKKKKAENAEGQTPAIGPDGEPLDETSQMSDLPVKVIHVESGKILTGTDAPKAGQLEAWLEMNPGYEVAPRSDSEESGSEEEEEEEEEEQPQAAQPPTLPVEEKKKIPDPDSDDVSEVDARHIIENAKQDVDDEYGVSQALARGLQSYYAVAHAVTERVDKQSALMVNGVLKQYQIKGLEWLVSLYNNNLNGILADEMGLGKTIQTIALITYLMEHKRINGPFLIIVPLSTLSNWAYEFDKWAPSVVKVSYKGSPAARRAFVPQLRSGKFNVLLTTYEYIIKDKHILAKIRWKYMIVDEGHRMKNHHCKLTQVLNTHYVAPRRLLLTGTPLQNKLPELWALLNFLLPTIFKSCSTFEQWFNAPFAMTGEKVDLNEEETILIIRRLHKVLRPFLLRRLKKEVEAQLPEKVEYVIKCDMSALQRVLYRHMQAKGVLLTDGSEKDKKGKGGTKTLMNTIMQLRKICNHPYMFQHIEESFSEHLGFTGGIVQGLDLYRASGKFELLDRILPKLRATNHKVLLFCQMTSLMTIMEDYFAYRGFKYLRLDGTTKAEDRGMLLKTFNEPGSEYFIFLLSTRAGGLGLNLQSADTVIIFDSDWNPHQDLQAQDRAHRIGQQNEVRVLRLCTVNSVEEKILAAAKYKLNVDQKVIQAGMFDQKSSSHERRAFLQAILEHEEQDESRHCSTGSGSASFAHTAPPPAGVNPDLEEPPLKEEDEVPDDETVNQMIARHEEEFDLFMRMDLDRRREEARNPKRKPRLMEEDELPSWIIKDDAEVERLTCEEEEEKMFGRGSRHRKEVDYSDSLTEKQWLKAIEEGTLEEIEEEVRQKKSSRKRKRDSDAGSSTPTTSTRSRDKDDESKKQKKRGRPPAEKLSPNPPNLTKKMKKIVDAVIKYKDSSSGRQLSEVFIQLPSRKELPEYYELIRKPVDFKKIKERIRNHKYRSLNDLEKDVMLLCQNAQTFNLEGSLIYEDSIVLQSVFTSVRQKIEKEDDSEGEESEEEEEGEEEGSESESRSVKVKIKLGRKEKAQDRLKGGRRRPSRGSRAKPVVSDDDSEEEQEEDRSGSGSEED
UniProt P51531, whole entry: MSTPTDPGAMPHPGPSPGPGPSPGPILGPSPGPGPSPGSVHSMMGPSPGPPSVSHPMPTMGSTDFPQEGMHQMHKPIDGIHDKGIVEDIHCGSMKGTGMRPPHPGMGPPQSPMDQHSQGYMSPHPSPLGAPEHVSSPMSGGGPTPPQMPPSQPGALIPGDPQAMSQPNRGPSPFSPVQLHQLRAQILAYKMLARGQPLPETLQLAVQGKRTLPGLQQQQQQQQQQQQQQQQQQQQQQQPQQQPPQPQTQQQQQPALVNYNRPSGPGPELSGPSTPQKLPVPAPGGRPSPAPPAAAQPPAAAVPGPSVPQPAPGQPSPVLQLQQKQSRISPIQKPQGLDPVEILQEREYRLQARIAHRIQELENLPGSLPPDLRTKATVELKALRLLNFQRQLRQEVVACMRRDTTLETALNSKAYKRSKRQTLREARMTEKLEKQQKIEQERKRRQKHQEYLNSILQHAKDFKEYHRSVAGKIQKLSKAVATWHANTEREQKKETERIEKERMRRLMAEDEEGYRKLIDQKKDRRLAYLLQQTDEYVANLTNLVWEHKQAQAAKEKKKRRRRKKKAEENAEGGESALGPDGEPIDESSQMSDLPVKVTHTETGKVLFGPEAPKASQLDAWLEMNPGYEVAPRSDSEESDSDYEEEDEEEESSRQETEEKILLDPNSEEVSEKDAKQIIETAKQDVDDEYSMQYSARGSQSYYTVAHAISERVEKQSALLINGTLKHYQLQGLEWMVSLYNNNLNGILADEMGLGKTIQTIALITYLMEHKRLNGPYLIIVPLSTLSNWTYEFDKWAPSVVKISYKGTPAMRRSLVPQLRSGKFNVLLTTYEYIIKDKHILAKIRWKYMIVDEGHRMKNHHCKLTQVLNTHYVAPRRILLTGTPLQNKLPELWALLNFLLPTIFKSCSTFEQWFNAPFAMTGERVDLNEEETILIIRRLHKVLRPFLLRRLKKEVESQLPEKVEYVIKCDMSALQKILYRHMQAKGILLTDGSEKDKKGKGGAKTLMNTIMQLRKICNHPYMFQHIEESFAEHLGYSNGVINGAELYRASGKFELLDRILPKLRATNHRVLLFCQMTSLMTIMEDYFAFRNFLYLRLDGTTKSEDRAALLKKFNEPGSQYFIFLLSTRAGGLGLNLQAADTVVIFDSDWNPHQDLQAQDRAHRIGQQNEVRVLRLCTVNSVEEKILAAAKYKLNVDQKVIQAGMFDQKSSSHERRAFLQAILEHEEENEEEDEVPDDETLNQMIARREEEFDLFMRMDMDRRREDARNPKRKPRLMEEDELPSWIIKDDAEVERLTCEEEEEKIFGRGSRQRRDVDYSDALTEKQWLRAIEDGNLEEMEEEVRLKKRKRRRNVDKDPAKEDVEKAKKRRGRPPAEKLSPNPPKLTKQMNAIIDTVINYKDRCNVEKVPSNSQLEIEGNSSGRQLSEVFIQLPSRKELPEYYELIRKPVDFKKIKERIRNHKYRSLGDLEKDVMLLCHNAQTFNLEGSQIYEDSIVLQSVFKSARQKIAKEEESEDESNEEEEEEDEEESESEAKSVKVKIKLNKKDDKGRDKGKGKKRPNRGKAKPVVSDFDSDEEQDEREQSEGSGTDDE

Where only a bound is given, the exact number is not on record here.

The target of assay [1] is HiBit-BRG1 fusion protein (Homo sapiens, UniProt P51532). Nature of the assay: HiBiT-BRG1 cell-based degradation assay (Nano-Glo HiBiT Lytic Detection, 24 h). Conditions: stable HeLa cell line expressing HiBit-BRG1 and LgBit. Here is the method:
(§1) Procedure: A stable HeLa cell line expressing HiBiT-BRM was generated. On day 0, 5000 cells were seeded in 40 μL of media into each well of 384-well cell culture plates. On day 1, cells were treated with 120 nL DMSO or 120 nL of 3-fold serially DMSO-diluted compounds (10 points in duplicate with 30 μM as final top dose). Subsequently plates were incubated for 24 h in a standard tissue culture incubator and equilibrated at room temperature for 15 minutes. Nano-Glo HiBiT Lytic Detection System (Promega N3050) reagent was freshly prepared and 20 ul was added to each well. Upon addition of this LgBit-containing reagent, the HiBiT and LgBiT proteins associate to form the luminescent NanoBiT Iuciferase. The plates were shaken for 10 minutes at room temperature and the bioluminescence read using an EnVision plate reader (PerkinElmer).
For measurement of BRG1 degradation, a stable HeLa cell line expressing HiBit-BRG1 and LgBit was generated. The same protocol as above was then followed.
(§2) The degradation % was calculated using the following formula: % degradation=100%-100%×(LumSample−LumLC)/(LumHC−LumLC). DMSO treated cells are employed as High Control (HC) and 2 μM of a known BRM/BRG1 degrader standard treated cells are employed as Low Control (LC).

A further assay addresses HiBit-BRM fusion protein (Homo sapiens, UniProt P51531). As to the kind of experiment: HiBiT-BRM cell-based degradation assay (Nano-Glo HiBiT Lytic Detection, 24 h). On the procedure: as §1, §2
For orientation: The HiBiT peptide binds its large partner to form an active luciferase.

`Cc1cc(-c2cc([C@H](C(=O)N3C[C@H](O)C[C@H]3C(=O)N[C@@H](C)c3ccc(-c4scnc4C)cc3)C(C)C)on2)cnc1N1CC[C@H](c2sc3nnc(-c4ccccc4O)cc3c2C)C1`: in assay [1], the “BRG1 HiBit Degradation Maximum (%)” value is listed as “C (“C” indicates maximum degradation <50%)”. In addition, the IC50 at HiBit-BRM fusion protein (read-out: BRM HiBit Degradation IC50, stable HeLa cell line expressing HiBiT-BRM) is less than 10 nM. For the same compound, on HiBit-BRM fusion protein (stable HeLa cell line expressing HiBiT-BRM), the “BRM HiBit Degradation Maximum (%)” value is recorded as “A (“A” indicates maximum degradation ≥75%)”.

One may read the IC50 as the concentration that gives 50% inhibition.
